Assay results as given in US6548494B1, “Tricyclic inhibitors of poly(ADP-ribose) polymerases” (Agouron Pharmaceuticals, Inc., priority 1999, dated 2003).

Sequences of proteins named here, by UniProt entry; tags and fusion partners are left off.
UniProt P09874, whole entry: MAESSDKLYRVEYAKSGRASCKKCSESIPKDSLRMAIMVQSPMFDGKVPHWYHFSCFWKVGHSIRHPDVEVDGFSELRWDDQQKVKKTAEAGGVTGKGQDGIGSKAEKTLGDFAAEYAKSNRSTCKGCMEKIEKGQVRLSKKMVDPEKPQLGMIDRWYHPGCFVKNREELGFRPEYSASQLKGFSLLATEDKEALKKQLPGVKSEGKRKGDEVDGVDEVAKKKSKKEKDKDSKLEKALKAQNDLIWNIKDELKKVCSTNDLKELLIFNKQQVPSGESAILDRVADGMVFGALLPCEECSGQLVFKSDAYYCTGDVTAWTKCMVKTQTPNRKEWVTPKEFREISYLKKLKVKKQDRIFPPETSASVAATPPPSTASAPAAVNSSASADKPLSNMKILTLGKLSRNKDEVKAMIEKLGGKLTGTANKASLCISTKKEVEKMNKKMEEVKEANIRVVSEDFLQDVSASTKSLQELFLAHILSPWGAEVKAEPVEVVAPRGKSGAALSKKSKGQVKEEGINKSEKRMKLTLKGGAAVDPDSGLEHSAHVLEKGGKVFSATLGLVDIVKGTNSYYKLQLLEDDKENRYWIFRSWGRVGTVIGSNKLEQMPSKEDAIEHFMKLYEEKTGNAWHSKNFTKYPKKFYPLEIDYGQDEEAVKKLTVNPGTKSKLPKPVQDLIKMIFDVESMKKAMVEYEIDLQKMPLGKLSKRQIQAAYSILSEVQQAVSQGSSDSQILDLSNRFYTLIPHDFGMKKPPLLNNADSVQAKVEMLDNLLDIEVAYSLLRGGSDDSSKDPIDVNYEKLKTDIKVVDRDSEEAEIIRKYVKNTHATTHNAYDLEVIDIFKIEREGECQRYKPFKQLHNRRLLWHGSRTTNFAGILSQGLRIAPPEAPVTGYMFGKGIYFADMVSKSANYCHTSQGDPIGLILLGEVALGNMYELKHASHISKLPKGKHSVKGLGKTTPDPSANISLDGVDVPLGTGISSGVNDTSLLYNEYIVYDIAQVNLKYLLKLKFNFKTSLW

Biological target: purified PARP protein (Homo sapiens, UniProt P09874)
Test: PARP enzyme inhibition assay
Type: biochemical
Conditions: 20 nM purified PARP (5 nM for tight-binding inhibitors), 500 μM NAD+, 25° C.; several values in one cell = repeat determinations; read-out: Inhibition Constant Ki

Ki: 22 nM
Compound: Cc1c(-c2ccc(F)cc2)n2c3c(cccc13)C(=O)NCC2 [Example 50, 6-(4-Fluoro-phenyl)-7-methyl-3,4-dihydro-2H-[1,4]diazepino[6,7,1-hi]indol-1-one]
